{"source": "patent US12429487B2", "about": "“Neurofilament protein for guiding therapeutic intervention in amyotrophic lateral sclerosis” (Biogen MA Inc., priority 2018, dated 2025)", "system": "ALS patient", "assay": "Prophetic example: switching therapeutics in an ALS patient", "assay_type": "in vivo, human", "settings": "after 3 months of treatment, vs initial level", "method": "The patient's serum neurofilament protein level is measured and is determined to be at a level which will be called the initial level. The patient's physician will ask the patient to take an ALSFRS-R assessment every six months. […] The physician will then advise the patient to switch to another therapeutic (e.g., edarovone that may be efficacious to that patient) prior to the patient taking their six month ALSFRS-R test."}
{"molecule": "Nc1nc2ccc(OC(F)(F)F)cc2s1", "note": "[riluzole]", "values": [{"measurement": "serum neurofilament protein level", "value": "higher than the initial level"}]}
